Assay results: patent US20250223276A1, “Substituted Pyrrolidinyl And Piperidinyl Compounds And Related Methods Of Treatment” (Alkermes, Inc., priority 2022, published 2025)

Amino acid sequences for entries named in this document (tags omitted).
UniProt O43614, whole entry: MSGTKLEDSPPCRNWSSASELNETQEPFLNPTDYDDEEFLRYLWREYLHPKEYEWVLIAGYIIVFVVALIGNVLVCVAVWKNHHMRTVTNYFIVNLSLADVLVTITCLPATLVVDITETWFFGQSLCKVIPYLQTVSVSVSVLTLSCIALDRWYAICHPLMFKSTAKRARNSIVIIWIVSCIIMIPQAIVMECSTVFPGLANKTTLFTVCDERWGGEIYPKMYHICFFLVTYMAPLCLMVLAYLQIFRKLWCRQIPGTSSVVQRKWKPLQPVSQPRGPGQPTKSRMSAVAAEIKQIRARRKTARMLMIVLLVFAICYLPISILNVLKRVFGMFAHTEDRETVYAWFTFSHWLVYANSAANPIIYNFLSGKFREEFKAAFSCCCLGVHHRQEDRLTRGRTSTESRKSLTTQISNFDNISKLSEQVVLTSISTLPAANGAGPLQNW

Biological target: human orexin-2 receptor (OX2R) (Homo sapiens, UniProt O43614)
Experiment: Human OX2R IP1 assay
Conditions: T-Rex CHO cells stably overexpressing human OX2R; IP1 (inositol monophosphate) accumulation, HTRF; 1 hr at 37 degrees C
Experimental: T-Rex CHO cells stably overexpressing the human orexin-2 receptor (OX2R) are induced overnight with 1 μg/mL of doxycycline in a T225 flask. 24 hours post induction, cells are lifted with accutase and plated into a 384-well proxy plate at 30,000 cells/well. Cells are then treated with different test compounds in 1× stimulation buffer containing 10 mM Hepes, 1 mM CaCl2), 0.5 mM MgCl2, 4.2 mM KCl, 146 mM NaCl, 5.5 mM glucose, and 50 mM LiCl, pH 7.4, for 1 hr at 37 degrees C. Following incubation, the reaction is terminated by the addition of detection mix, which is composed of IP1-d2 and anti-IP1-cryptate diluted in lysis buffer as well as 1× stimulation buffer. The plates are allowed to incubate for 1 hour at room temperature and are then read in the En Vision® multimode plate reader, measuring inositol phosphate levels.
Cisbio IP1 is a cell-based functional assay quantifying the accumulation of inositol monophosphate (IP), a metabolite released as a result of orexin 2 receptor activation through the phospholipase C-Gq signaling pathway. This is a competitive immunoassay in which the IP1 produced by the cells upon receptor activation competes with the IP1 analog coupled to the d2 fluorophore (acceptor) for binding to an anti-IP1 monoclonal antibody labeled with Eu cryptate (donor). The measured HTRF-FRET based signal is inversely proportional to the IP1 concentration produced. […]

O=C(N[C@H]1CCN(c2cccnn2)C[C@H]1CO[C@H]1CC[C@@H](c2cccc(F)c2)CC1)C(F)(F)F
EC50: < 100 nM
